Results taken from patent publication US20130302888A1, “CELL CULTURE METHOD AND SYSTEM FOR ESTABLISHING AN IN VITRO MODEL OF THE INTESTINAL BARRIER” (GATTEFOSSE SAS, priority 2011, published 2013).

In the case of rhodamine 123 [Rho123], the Papp (Caco-2 monolayer) was 19 10^−6 cm/s and the Papp (HT29-MTX monolayer) was 3 10^−6 cm/s.
